Experimental findings from PubChem BioAssay AID463210 (The Scripps Research Institute Molecular Screening Center, 2010) are described below.

Amino acid sequences for entries named in this document (tags omitted).
UniProt P55210, whole entry D23A/D198A/D206A: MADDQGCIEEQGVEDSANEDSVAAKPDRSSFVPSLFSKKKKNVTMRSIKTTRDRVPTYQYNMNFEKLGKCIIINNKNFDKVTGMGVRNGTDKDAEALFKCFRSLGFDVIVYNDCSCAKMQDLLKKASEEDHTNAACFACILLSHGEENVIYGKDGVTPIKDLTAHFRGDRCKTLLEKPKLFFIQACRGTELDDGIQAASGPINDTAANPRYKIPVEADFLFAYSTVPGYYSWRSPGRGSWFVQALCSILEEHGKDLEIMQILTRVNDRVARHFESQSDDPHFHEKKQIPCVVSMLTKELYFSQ

Structures are written as SMILES. The entries are a selection whose mix differs from that of the whole data set. Some salts or complexes appear as unconnected parts, following the source record. Activity calls are given as the source filed them.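 Rule for the calls: active = percent activation above the screen-wide mean plus 3 SD (cut at about 25% in these data); inactive = the rest.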

This experiment addresses Caspase-7 (Homo sapiens) (UniProt P55210). The experiment is described as follows: activation of procaspase-7 enzyme – biochemical, absorbance, HTS, human, counter-screen for procaspase-3 activator project, primary screen (AID 463210). To be noted: recombinant procaspase-7, Ac-DEVD-pNA absorbance 405 nm; at 8.5 µM; hits give high values; D23A/D198A/D206A triple mutant, cannot self-cleave; scale: DMSO 0, 5 µM enzyme 100. Background: The purpose of a counterscreen is to sort out artefacts and off-target activity.
As to `COc1ccccc1OP(C)(=O)Nc1ccc(Br)cc1` (stereo unspecified), the activation is inactive: 2.53%.

Take `COc1ccc(OP(C)(=O)Nc2ccccn2)cc1` (stereo unspecified): the activation was inactive: 8.63%.

For the compound `Cc1c(NP(C)(=O)Oc2ccc(C(C)C)cc2)c(=O)n(-c2ccccc2)n1C` (stereo unspecified), the activation was inactive: -1.01%.

For the compound `O=[N+]([O-])c1cc([N+](=O)[O-])c(Nc2ccccn2)c([N+](=O)[O-])c1`, the activation is inactive: 4.64%.

Consider `CCc1ccc(OP(C)(=O)O)cc1`, for which the activation is inactive: -4.19%.

Consider `CP(=O)(Nc1ccccn1)Oc1ccccc1` (stereo unspecified), for which the activation is inactive: 4.08%.

Consider `COc1ccccc1OP(C)(=O)Nc1ccc(C)cc1C` (stereo unspecified), for which the activation was inactive: 12.6%.

Turning to `Cc1cc(C)cc(OP(C)(=O)Nc2cccc(C(F)(F)F)c2)c1` (stereo unspecified), the activation is inactive: 7.09%.

For the compound `COc1ccc(OP(C)(=O)Nc2ccccc2Br)cc1` (stereo unspecified), the activation is inactive: 2.09%.

For the compound `COc1ccccc1OP(C)(=O)Nc1ccc(C)c(C)c1` (stereo unspecified), the activation was inactive: 7.43%.

With `Cc1nc2ccc3ccccc3c2o1.O=[N+]([O-])c1cc([N+](=O)[O-])c(O)c([N+](=O)[O-])c1`, the activation was inactive: 1.53%.

On to `CP(=O)(Nc1ccc(Cl)cc1Cl)Oc1ccccc1` (stereo unspecified), for which the activation is inactive: -1.46%.

In the case of `CP(=O)(OCCOc1ccccc1)OCCOc1ccccc1`, the activation is inactive: -0.48%.

`Nc1ccc2c(ccc3cccnc32)n1.O=[N+]([O-])c1cc([N+](=O)[O-])c(O)c([N+](=O)[O-])c1`: the activation was inactive: -4.23%.

Consider `CP(=O)(OC12CC3CC(CC(C3)C1)C2)OC12CC3CC(CC(C3)C1)C2`, for which the activation was inactive: 2.23%.

`CCOC(=O)c1ccc(NP(C)(=O)Oc2ccc(Cl)cc2)cc1` (stereo unspecified): the activation is inactive: 4.98%.

For the compound `CCN(CC)CC(O)COC(=O)C(O)(c1ccccc1)C1CCCCC1` (stereo unspecified), the activation was inactive: 18.8%.

Regarding `COc1ccc(OP(C)(=O)Nc2ccc(Br)cc2)cc1` (stereo unspecified), the activation was inactive: -0.59%.

Turning to `CP(=O)(Oc1ccccc1)N1CCOC1=O` (stereo unspecified), the activation is inactive: -1.29%.

In the case of `CCc1ccc(OP(C)(=O)Nc2cccnc2)cc1` (stereo unspecified), the activation was inactive: 12.9%.

As to `COc1ccccc1OP(C)(=O)Nc1c(C)n(C)n(-c2ccccc2)c1=O` (stereo unspecified), the activation was inactive: -8.98%.

Consider `O=C(OCCCN1CCCC1)C(O)(c1ccccc1)C1CCCCC1` (stereo unspecified), for which the activation is inactive: 3.25%.

As for `CP(=O)(Nc1ccc(Cl)cc1)Oc1ccc(F)cc1` (stereo unspecified), the activation is inactive: 5.33%.

Consider `COc1ccccc1OP(C)(=O)Nc1ccccc1Br` (stereo unspecified), for which the activation was inactive: -4.26%.

As to `CC(C)(C)c1ccc(OP(C)(=O)O)cc1`, the activation was inactive: 3.04%.

As for `CN(C)C(=O)c1c([N+](=O)[O-])cc([N+](=O)[O-])cc1[N+](=O)[O-]`, the activation is inactive: -0.19%.

For the compound `CP(=O)(Nc1ccc(SC(F)(F)F)cc1)Oc1ccc(F)cc1` (stereo unspecified), the activation was inactive: 2.28%.

Consider `CCOP(C)(=S)SCC(=O)NC(C)(CC)C(=O)O` (stereo unspecified), for which the activation is inactive: 7.54%.

On to `CP(=O)(Nc1ccc2c(c1)OCCO2)Oc1ccccc1` (stereo unspecified), for which the activation is inactive: 5.47%.

Consider `Cc1ccccc1NP(C)(=O)Nc1ccccc1C`, for which the activation is inactive: -5.25%.

In the case of `COc1ccc(OP(C)(=O)Nc2cccc(Br)c2)cc1` (stereo unspecified), the activation was inactive: -15.1%.

With `COc1ccc(NP(C)(=O)Oc2ccccc2OC)cc1` (stereo unspecified), the activation was inactive: 14.4%.

Consider `CN(C)CCOC(=O)C(O)(c1ccccc1)C1CCCCC1` (stereo unspecified), for which the activation was inactive: 5.05%.

`O=[N+]([O-])c1cc([N+](=O)[O-])c(NCC2CCS(=O)(=O)C2)c([N+](=O)[O-])c1` (stereo unspecified): the activation was inactive: 5.37%.

Turning to `COc1ccc(OP(C)(=O)Nc2ccc(SC(F)(F)F)cc2)cc1` (stereo unspecified), the activation is inactive: 10.5%.

Consider `CCOC(=O)c1ccc(NP(C)(=O)Oc2ccc(F)cc2)cc1` (stereo unspecified), for which the activation is inactive: -1.53%.

`CCN(CC)CCCOC(=O)C(O)(c1ccccc1)C1CCCCC1` (stereo unspecified): the activation was inactive: 12.8%.

As to `CCCCCOc1ccc(NP(C)(=O)Oc2ccc(Cl)cc2Cl)cc1` (stereo unspecified), the activation was inactive: 0.04%.

As for `O=[N+]([O-])c1cc([N+](=O)[O-])c(OC2CCCCC2O)c([N+](=O)[O-])c1` (stereo unspecified), the activation was inactive: -2.75%.

Turning to `CP(=O)(Nc1ccccc1)Oc1ccc(F)cc1` (stereo unspecified), the activation was inactive: 6.16%.

For the compound `CC(C)c1ccc(OP(C)(=O)Nc2ccc(SC(F)(F)F)cc2)cc1` (stereo unspecified), the activation was inactive: -8.1%.

Take `CP(=O)(Nc1ccccc1F)Oc1ccccc1` (stereo unspecified): the activation was inactive: -4.99%.

On to `O=C(OCCN1CCN(CCOCc2ccccc2)CC1)C(O)(c1ccccc1)c1ccccc1`, for which the activation is inactive: 4.43%.

On to `O=C(OC1CN2CCC1CC2)c1ccc([N+](=O)[O-])cc1` (stereo unspecified), for which the activation was inactive: 8.77%.

With `COc1ccc2c(c1O)-c1c(O)c(OC)cc3c1[C@H](C2)[N+](C)(C)CC3.O=[N+]([O-])c1cc([N+](=O)[O-])c([O-])c([N+](=O)[O-])c1[O-]`, the activation was inactive: -13.9%.

With `COc1ccccc1OP(C)(=O)Nc1cccc(Br)c1` (stereo unspecified), the activation is inactive: 3.46%.

In the case of `Cc1cc(C)cc(OP(C)(=O)Nc2ccc(C)cc2C)c1` (stereo unspecified), the activation was inactive: 5.19%.

Consider `CCOC(=O)c1ccc(NP(C)(=O)Oc2cc(C)cc(C)c2)cc1` (stereo unspecified), for which the activation was inactive: -1.69%.

`Cc1cc(C)cc(OP(C)(=O)Nc2ccccn2)c1` (stereo unspecified): the activation was inactive: 3.05%.

For `CP(=O)(Nc1cccc(Br)c1)Oc1ccccc1` (stereo unspecified), the activation was inactive: 3.79%.

As for `Cc1ccc(C)c(NP(C)(=O)Oc2ccccc2)c1` (stereo unspecified), the activation was inactive: 8.57%.

Consider `O=C(O)c1cccc(Nc2c([N+](=O)[O-])cc([N+](=O)[O-])cc2[N+](=O)[O-])c1`, for which the activation was inactive: -8.68%.

On to `CC1=NCCc2c1[nH]c1ccccc21.O=[N+]([O-])c1cc([N+](=O)[O-])c(O)c([N+](=O)[O-])c1`, for which the activation is inactive: 10.1%.

As to `CC1=C2N=C(C=C3N=C(C(C)=C4[N-][C@@](C)([C@@H]5N=C1[C@](C)(CCC(=O)NC[C@@H](C)OP(=O)([O-])O[C@H]1[C@@H](O)[C@@H](n6cnc7cc(C)c(C)cc76)O[C@@H]1CO)[C@H]5CC(N)=O)[C@@](C)(CC(N)=O)[C@@H]4CCC(N)=O)[C@@](C)(CC(N)=O)[C@@H]3CCC(N)=O)C(C)(C)[C@@H]2CCC(N)=O.[C-]#N.[Co+3]`, the activation was inactive: 13.6%.

In the case of `O=[N+]([O-])c1cc([N+](=O)[O-])c(Nc2nnnn2CCO)c([N+](=O)[O-])c1`, the activation was inactive: -11%.

`CCOC(=O)C(CC)C1=NC(C)(C)Cc2ccccc21.O=[N+]([O-])c1cc([N+](=O)[O-])c(O)c([N+](=O)[O-])c1` (stereo unspecified): the activation was inactive: -3.11%.

As to `CN1CCCCC1COC(=O)C1(O)c2ccccc2CCc2ccccc21` (stereo unspecified), the activation is inactive: -3.71%.

Take `COc1ccccc1OP(C)(=O)Nc1c(C)cccc1C` (stereo unspecified): the activation is inactive: 9.27%.

For `CCCOc1ccc(NP(C)(=O)Oc2ccc(Cl)cc2)cc1` (stereo unspecified), the activation was inactive: -3.55%.

In the case of `CP(=O)(Nc1ccc(SC(F)(F)F)cc1)Oc1ccccc1` (stereo unspecified), the activation is inactive: 2.79%.

Take `O=[N+]([O-])c1cc([N+](=O)[O-])c(-n2nnc3ccccc32)c([N+](=O)[O-])c1`: the activation is inactive: -13.9%.

Consider `O=[N+]([O-])c1cc([N+](=O)[O-])c(-c2cnn(-c3ccccc3)c2)c([N+](=O)[O-])c1`, for which the activation is inactive: 3.77%.

In the case of `Cc1nc2ccc3ccccc3c2s1.O=[N+]([O-])c1cc([N+](=O)[O-])c(O)c([N+](=O)[O-])c1`, the activation is inactive: -17.7%.

`CP(=O)(Nc1ccc(SC(F)(F)F)cc1)Oc1ccc(Cl)cc1` (stereo unspecified): the activation was inactive: 9.07%.

With `Cc1cccc(C)c1OP(C)(=O)Nc1ccc(SC(F)(F)F)cc1` (stereo unspecified), the activation was inactive: -6.62%.

Consider `CP(=O)(Oc1ccccc1)OC(c1ccccc1)C(F)(F)F` (stereo unspecified), for which the activation is inactive: 5.88%.

Take `CP(=O)(NC(=O)Nc1ccccc1)Oc1ccccc1` (stereo unspecified): the activation was inactive: -3.65%.

For the compound `CCc1ccc(OP(C)(=O)N2CCN(c3ccc([N+](=O)[O-])cc3)CC2)cc1` (stereo unspecified), the activation was inactive: -7.9%.

`Cc1cc(C)cc(OP(C)(=O)Nc2ccc(SC(F)(F)F)cc2)c1` (stereo unspecified): the activation is inactive: -8.46%.

On to `CCOP(C)(=S)SCC(=O)NC(C)C(=O)O` (stereo unspecified), for which the activation was inactive: 7.64%.

Consider `O=[N+]([O-])c1cc([N+](=O)[O-])c(O)c([N+](=O)[O-])c1.c1ccc(Oc2ccncc2)cc1`, for which the activation was inactive: -1.58%.

For `CCOC(=O)c1ccc(NP(C)(=O)Oc2ccc(OC)cc2)cc1` (stereo unspecified), the activation was inactive: -3.05%.

For the compound `CP(=O)(Nc1ccccn1)Oc1ccc(Cl)cc1` (stereo unspecified), the activation is inactive: -0.81%.

With `CP(=S)(Nn1cnnc1)Oc1ccccc1` (stereo unspecified), the activation was inactive: -30.7%.

With `CP(=O)(Nc1ccccc1Br)Oc1ccccc1` (stereo unspecified), the activation is inactive: 3.26%.

With `O=[N+]([O-])c1cc([N+](=O)[O-])c(Nc2cccnc2)c([N+](=O)[O-])c1`, the activation is inactive: -1%.

With `CC(C)(C)c1ccc(OP(C)(=O)Nc2ccc(SC(F)(F)F)cc2)cc1` (stereo unspecified), the activation was inactive: 0.2%.

Regarding `Cc1cccc(C)c1OP(C)(N)=O` (stereo unspecified), the activation was inactive: -1.66%.

For the compound `O=[N+]([O-])c1ccc2c(c1)C=Nc1ccccc1O2`, the activation was inactive: -2.03%.

With `CCOC(=O)c1ccc(NP(C)(=O)Oc2ccccc2)cc1` (stereo unspecified), the activation was inactive: 5.76%.

With `COc1ccccc1OP(C)(=O)Nc1ccc(C)cc1` (stereo unspecified), the activation is inactive: 10.9%.

With `Cc1ccc(NP(C)(=O)Oc2ccccc2)c(C)c1` (stereo unspecified), the activation is inactive: 0.17%.

Turning to `COc1ccccc1OP(C)(=O)Nc1cc(Cl)ccc1C` (stereo unspecified), the activation is inactive: 7.48%.

Regarding `COc1ccc(OP(C)(=O)Nc2cccc(F)c2)cc1` (stereo unspecified), the activation was inactive: 10.7%.

On to `Cc1cc(C)cc(OP(C)(N)=O)c1` (stereo unspecified), for which the activation was inactive: -0.39%.

`CCN(CC)CCCOC(=O)C(O)(c1ccccc1)c1ccccc1`: the activation is inactive: 2.43%.
